This is a selection; strong and weak results do not stand in their true shares. The source made the active and inactive calls.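 The calls were made as follows: active = inhibition above a set limit, derived from the sample mean plus 3 SD (cut at about 45% in these data); inconclusive = one replicate passes the limit while the other fails; inactive = the rest.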
Assay: inhibitors of APP translation via 5'UTR reporter, primary screen, APP 5'UTR luciferase, SH-SY5Y cells (AID 1285)
Conditions: SH-SY5Y APP 5'UTR-luciferase reporter, luminescence; at 2 µM; hits give high values

| SMILES | inhibition |
| --- | --- |
| COc1ccc(C2=NCC(CBr)S2)cc1 (centres undefined) | inactive: -10.2% |
| O=[N+]([O-])c1cccc2n[nH]nc12 | inactive: -5.5% |
| CC(=O)N1C2C3N(C(C)=O)C1C1N(C(C)=O)C(C(N1C(C)=O)N3C(C)=O)N2C(C)=O | inactive: -8.8% |
| Cc1ccc(NP(=O)(Oc2ccccc2)Oc2ccccc2)nc1 | inactive: -14.2% |
| CCc1nc2c(n1)c1c(non1O)c1c2no[n+]1[O-] | inactive: 3.7% |
| O=[N+]([O-])c1cc([N+](=O)[O-])c(CCNc2ccccc2)c([N+](=O)[O-])c1 | inactive: 19.1% |
| CCN(/C(=N/P(=O)(N1CCOCC1)N1CCOCC1)N1CCOCC1)c1ccc(OC)cc1 | inactive: 2.9% |
| CN(C)C(=O)OCCc1n(C)cc[n+]1C | inactive: -6.5% |
| CC1CCN(C(=O)Oc2c(Cl)cc(Cl)c3cccnc23)CC1 | inactive: -6.6% |
| O=[N+]([O-])c1ncn(CCn2ncnc2[N+](=O)[O-])n1 | inactive: 20.7% |
| Cc1cc(SC(NC(=O)c2ccc(F)cc2)C(Cl)(Cl)Cl)ncn1 (centres undefined) | inactive: -5.6% |
| CCOP(=O)(Nc1ccccc1)OCC | inactive: -4.3% |
| CCN(N=Nc1nonc1N)c1nonc1N | inactive: 4.2% |
| NC(=O)c1cc([N+](=O)[O-])cc([N+](=O)[O-])c1N | inactive: -9.6% |
| Cc1ccc(N/C(=N/P(=O)(N2CCOCC2)N2CCOCC2)N2CCOCC2)cc1 | inactive: 3.6% |
| COc1ccccc1OP(=O)(Nc1ccc(C)cn1)Oc1ccccc1OC | inactive: 7% |
| CN1CCCC(OC(=O)C(c2ccccc2)c2ccccc2)C1 (centres undefined) | inactive: 8% |
| Clc1ccc(Cl)c(NC2=NCC(CBr)S2)c1 (centres undefined) | inactive: -4.4% |
| CC(C)CC(=O)NC(Sc1ccc(Cl)cc1)C(Cl)(Cl)Cl (centres undefined) | inactive: -10.5% |
| Oc1ccccc1CNc1ccccn1 | inactive: -10% |
| O=C(NC(Sc1ccncn1)C(Cl)(Cl)Cl)c1ccccc1 (centres undefined) | inactive: -20.7% |
| Cc1c2non([O-])c-2c(C)[n+](=O)[n+]1[O-] | inactive: 2.5% |
| O=P1(Nc2nc3ccc(Cl)cc3s2)COc2ccccc2O1 (centres undefined) | inactive: -4.3% |
| CCOc1ccc(C2=NCC(CBr)S2)cc1 (centres undefined) | inactive: 29.6% |
| CC(C)(C)C(=O)NC(Sc1ccccc1)C(Cl)(Cl)Cl (centres undefined) | inactive: 5.1% |
| CC(=O)Nc1ccc(Oc2c([N+](=O)[O-])cc([N+](=O)[O-])cc2[N+](=O)[O-])cc1 | inactive: -8% |
| CCNC(=S)/N=C(\N)N[N+](=O)[O-] | inactive: -5.4% |

| SMILES | inhibition |
| --- | --- |
| O=C(NC1CCS(=O)(=O)C1)NP(=S)(Oc1ccccc1)Oc1ccccc1 (centres undefined) | inactive: 22.4% |
| c1ccc(-c2nn[nH]n2)c(-c2nn[nH]n2)c1 | inactive: -22.6% |
| CCOC(=O)NC(Sc1ccccc1)C(Cl)(Cl)Cl (centres undefined) | inactive: 8.9% |
| COC(=O)c1cc2c(s1)N=C(c1ccccc1)N(C)P2(=O)N1CCOCC1 (centres undefined) | inactive: 8.6% |
| Cc1ccc(OP(=O)(Nc2ccccn2)Oc2ccc(C)cc2)cc1 | inactive: -24.1% |
| CC(=O)NC(SC(=S)N(CC(C)C)CC(C)C)C(Cl)(Cl)Cl (centres undefined) | inactive: -3.2% |
| CCC(=O)N1C2C3N(C(=O)CC)C1C1N(C(=O)CC)C(C(N1C(=O)CC)N3C(=O)CC)N2C(=O)CC | inactive: 0.9% |
| O=c1c2cc([N+](=O)[O-])ccc2[nH]c2c([N+](=O)[O-])cc([N+](=O)[O-])cc12 | active: 80.5% |
| O=P(Nc1ccccn1)(c1ccc(Br)cc1)c1ccc(Br)cc1 | inactive: 11.7% |
| CC(=O)NC(SC(=S)N(C)C)C(Cl)(Cl)Cl (centres undefined) | inactive: -0.6% |
| C(Cc1nn[nH]n1)Cc1nn[nH]n1 | inactive: -20.9% |
| O=C(OC1CN2CCC1CC2)c1cccc(Cl)c1 (centres undefined) | inactive: -0.6% |
| CC(C)C(=O)NC(Sc1ccccc1)C(Cl)(Cl)Cl (centres undefined) | inactive: -10.3% |
| O=P(Nc1nccs1)(c1ccccc1)c1ccccc1 | inactive: -6.8% |
| c1nnnn1CCn1cnnn1 | inactive: -7.2% |
| O=P1(Nc2ccccn2)COc2ccccc2OC1 | inactive: -13.5% |
| Clc1n[nH]nc1-c1nn[nH][15n]1 | inactive: 2.4% |
| CC1(CBr)Cn2c(nc3ccccc3c2=O)S1 (centres undefined) | inactive: 15.4% |
| CC(C)/C=N\N=C(\N)N[N+](=O)[O-] | inactive: 10.9% |
| CN(C(=O)Cc1ccc(Cl)c(Cl)c1)[C@@H]1CCCC[C@H]1N1CCCC1 | inactive: 1.7% |
| Cc1nn(-c2ccccc2)c2c1P(=O)(N1CCOCC1)N(C)C(c1ccccc1)=N2 (centres undefined) | inactive: 1.5% |
| CC1CCC(C(C)C)C(OP(=O)(Nc2ccccn2)c2ccccc2)C1 (centres undefined) | inactive: 11.1% |
| CN(C)C1(CNC(=O)c2ccc(S(C)(=O)=O)cc2)CCCCC1 | inactive: -13.6% |
| O=P1(Nc2ncccn2)COc2ccccc2OC1 | inactive: 1.6% |
| Cc1ccc(OCC(=O)OC2CN3CCC2CC3)cc1 (centres undefined) | inactive: -7% |
| O=P1(Nc2ccc(Br)cn2)COc2ccccc2OC1 | inactive: -10.9% |
| CCOP1(=S)c2c(C)nn(CCC#N)c2N=C(c2ccccc2F)N1C (centres undefined) | inactive: 1.7% |

| SMILES | inhibition |
| --- | --- |
| O=P(Nc1nccs1)(Oc1ccccc1)Oc1ccccc1 | inactive: -9% |
| O=P(Nc1nccs1)(c1ccccc1)c1nc2ccccc2s1 (centres undefined) | inactive: 26.1% |
| O=[N+]([O-])c1ccc2c(c1)nnn2O | inactive: 3% |
| CCOP1(=S)c2c(C)nn(CCC#N)c2N=C(c2ccc(F)cc2)N1C (centres undefined) | inactive: -3.5% |
| COc1cc(C(=O)NCC2(N3CCOCC3)CCCCC2)cc(Cl)c1OC(C)C | inactive: -2.9% |
| Cc1cccc(OCC(=O)OC2CN3CCC2CC3)c1 (centres undefined) | inactive: -2.2% |
| Cc1ccc(NCCc2c([N+](=O)[O-])cc([N+](=O)[O-])cc2[N+](=O)[O-])cc1 | inactive: 17.5% |
| COc1cc(C2NCCC3(OCCO3)C2(C)C)cc(OC)c1OC (centres undefined) | inactive: 4.4% |
| CCOP(=O)(Nc1cccc2ccccc12)OCC | inactive: -2.9% |
| O=C(OC1CN2CCC1CC2)C12CC3CC(CC(C3)C1)C2 (centres undefined) | inactive: 7.5% |
| Cc1cc(=O)[nH]c(N[N+](=O)[O-])n1 | inactive: -2.3% |
| Cc1c2c(nc3ccccc13)SC(C(Cl)Cl)C2 (centres undefined) | inactive: 10.2% |
| COc1ccc2nc(NP(=O)(c3ccccc3)c3ccccc3)sc2c1 | inactive: -26.9% |
| COc1ccc(N/C(=N/P(=O)(N2CCOCC2)N2CCOCC2)N2CCOCC2)cc1 | inactive: -9% |
| Cc1ccc2nc3c(c(C)c2c1)CC(C(Cl)Cl)S3 (centres undefined) | inactive: -21% |
| ClCCSc1nnc(-c2cccnc2)o1 | inactive: -5.8% |
| CC(C)NC(=O)NP(=O)(Oc1ccccc1)Oc1ccccc1 | inactive: -7.4% |
| CCN(CC)C(=S)SC(NC=O)C(Cl)(Cl)Cl (centres undefined) | inactive: 1.1% |
| O=[N+]([O-])c1cc([N+](=O)[O-])c(-c2ccn[nH]2)s1 | inactive: 7.8% |
| Cc1cc(SC(NC(=O)c2ccccc2)C(Cl)(Cl)Cl)nc(C(C)C)n1 (centres undefined) | inactive: 7.4% |
| O=P(Nc1ccccn1)(c1cccc2ccccc12)c1cccc2ccccc12 | inactive: -14.7% |
| Cc1cc(SC(NC=O)C(Cl)(Cl)Cl)ncn1 (centres undefined) | inactive: -20.5% |
| COP1(=S)c2c(C)nn(CCC#N)c2N=C(c2ccc(F)cc2)N1C (centres undefined) | inactive: 19.2% |
| O=C(COc1ccccc1)OC1CN2CCC1CC2 (centres undefined) | inactive: 7.1% |
| CCC(C)N(CC(C)C)C(=S)SC(NC(C)=O)C(Cl)(Cl)Cl (centres undefined) | inactive: -3.5% |
